This test addresses T1, cAMP and cAMP-inhibited cGMP 3',5'-cyclic phosphodiesterase 10A (Rattus norvegicus, UniProt Q9QYJ6).
T1 sequence (Q9QYJ6 whole entry): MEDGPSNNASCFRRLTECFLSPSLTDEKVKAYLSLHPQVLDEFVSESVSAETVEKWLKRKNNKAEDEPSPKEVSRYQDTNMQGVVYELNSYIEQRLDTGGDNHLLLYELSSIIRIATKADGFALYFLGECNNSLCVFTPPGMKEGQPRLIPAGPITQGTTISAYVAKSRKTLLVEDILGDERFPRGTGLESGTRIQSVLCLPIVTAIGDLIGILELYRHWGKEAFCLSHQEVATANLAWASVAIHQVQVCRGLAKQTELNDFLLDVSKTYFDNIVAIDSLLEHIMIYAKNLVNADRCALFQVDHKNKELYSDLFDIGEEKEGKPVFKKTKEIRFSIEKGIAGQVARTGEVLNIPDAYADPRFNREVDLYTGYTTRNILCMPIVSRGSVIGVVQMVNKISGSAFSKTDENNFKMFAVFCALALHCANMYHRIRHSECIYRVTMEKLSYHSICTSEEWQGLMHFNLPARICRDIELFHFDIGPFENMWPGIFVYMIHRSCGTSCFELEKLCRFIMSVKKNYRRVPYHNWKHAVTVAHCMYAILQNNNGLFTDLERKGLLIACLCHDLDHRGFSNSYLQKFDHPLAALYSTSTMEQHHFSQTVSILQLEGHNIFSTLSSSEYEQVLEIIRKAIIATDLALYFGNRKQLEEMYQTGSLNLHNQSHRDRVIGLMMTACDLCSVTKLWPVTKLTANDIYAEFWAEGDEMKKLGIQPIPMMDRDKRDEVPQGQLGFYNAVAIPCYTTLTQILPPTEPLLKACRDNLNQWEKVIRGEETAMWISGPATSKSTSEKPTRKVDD
Kind of test: Inhibition of rat recombinant PDE10A transfected in Sf9 cells.

Results on 1 compound are retold here after ChEMBL document CHEMBL1152448, “Discovery of a novel class of phosphodiesterase 10A inhibitors and identification of clinical candidate 2-[4-(1-methyl-4-pyridin-4-yl-1H-pyrazol-3-yl)-phenoxymethyl]-quinoline (PF-2545920) for the treatment of schizophrenia” (J Med Chem, 2009).

In the case of `c1ccc2nc(COc3ccc(-c4n[nH]cc4-c4ccncc4)cc3)ccc2c1`, the IC50 came to 423 pM.
